Assay: Serum vorinostat pharmacokinetics
Type: in vivo, human
Conditions: Mean, N 20, first 200 mg oral dose day 1

Structure (SMILES): O=C(CCCCCCC(=O)Nc1ccccc1)NO [vorinostat, suberoylanilide hydroxamic acid]
- Vd/F: 1,003 L/h
